Some of these compounds have results that are not shown, active ones among them.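 Assay format: 96-well plates, 48-hour exposure. The concentration for 50% growth inhibition is given as GI50. TGI: concentration producing complete growth inhibition.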
What was measured:
Assay in all cases: NCI anticancer screen, dose series, 48 h
MCF7 breast = tested on: MCF7 breast
HT29 colon = tested on: HT29 colon
HOP-62 NSCLC = tested on: HOP-62 NSCLC
OVCAR-5 ovarian = tested on: OVCAR-5 ovarian
IGROV1 ovarian = tested on: IGROV1 ovarian
COLO 205 colon = tested on: COLO 205 colon
MDA-N = tested on: MDA-N
K-562 leukemia = tested on: K-562 leukemia
NCI-H522 lung = tested on: NCI-H522 lung
TK-10 renal = tested on: TK-10 renal
T-47D breast = tested on: T-47D breast
CCRF-CEM leukemia = tested on: CCRF-CEM leukemia
ACHN renal = tested on: ACHN renal
PC-3 prostate = tested on: PC-3 prostate
EKVX NSCLC = tested on: EKVX NSCLC
SK-MEL-5 melanoma = tested on: SK-MEL-5 melanoma
HS 578T breast = tested on: HS 578T breast
UACC-62 melanoma = tested on: UACC-62 melanoma
UO-31 renal = tested on: UO-31 renal
CAKI-1 renal = tested on: CAKI-1 renal
786-0 renal = tested on: 786-0 renal
LOX IMVI melanoma = tested on: LOX IMVI melanoma
SF-539 CNS = tested on: SF-539 CNS
SF-268 CNS = tested on: SF-268 CNS
M14 melanoma = tested on: M14 melanoma
SF-295 CNS = tested on: SF-295 CNS
DU-145 prostate = tested on: DU-145 prostate
OVCAR-8 ovarian = tested on: OVCAR-8 ovarian
U251 CNS = tested on: U251 CNS
HCT-116 colon = tested on: HCT-116 colon
OVCAR-4 ovarian = tested on: OVCAR-4 ovarian
NCI/ADR-RES ovarian = tested on: NCI/ADR-RES ovarian
NCI-H322M lung = tested on: NCI-H322M lung
MALME-3M melanoma = tested on: MALME-3M melanoma
RXF 393 renal = tested on: RXF 393 renal
SN12C renal = tested on: SN12C renal
OVCAR-3 ovarian = tested on: OVCAR-3 ovarian
SK-MEL-28 melanoma = tested on: SK-MEL-28 melanoma
RPMI-8226 leukemia = tested on: RPMI-8226 leukemia
SR leukemia = tested on: SR leukemia
SNB-75 CNS = tested on: SNB-75 CNS
MOLT-4 leukemia = tested on: MOLT-4 leukemia
SW-620 colon = tested on: SW-620 colon
SK-MEL-2 melanoma = tested on: SK-MEL-2 melanoma
SK-OV-3 ovarian = tested on: SK-OV-3 ovarian
A498 renal = tested on: A498 renal
A549 NSCLC = tested on: A549 NSCLC
HL-60(TB) leukemia = tested on: HL-60(TB) leukemia
NCI-H23 lung = tested on: NCI-H23 lung
UACC-257 melanoma = tested on: UACC-257 melanoma
BT-549 breast = tested on: BT-549 breast
MDA-MB-231 breast = tested on: MDA-MB-231 breast
HCT-15 colon = tested on: HCT-15 colon
MDA-MB-435 = tested on: MDA-MB-435

`CCC#CC(O)(C(=O)OC1C2CCN(CC2)C1C)c1ccccc1` (stereo not drawn) showed a GI50 (MCF7 breast) greater than 100 µM, a TGI (MCF7 breast) greater than 100 µM and a GI50 (HT29 colon) greater than 100 µM. It also gave a TGI (HT29 colon) greater than 100 µM, a GI50 (HOP-62 NSCLC) greater than 100 µM and a TGI (HOP-62 NSCLC) greater than 100 µM. For the same compound, the GI50 (OVCAR-5 ovarian) was greater than 100 µM, the TGI (OVCAR-5 ovarian) was greater than 100 µM and the GI50 (IGROV1 ovarian) was greater than 100 µM. The TGI (IGROV1 ovarian) was greater than 100 µM, the GI50 (COLO 205 colon) was greater than 100 µM and the TGI (COLO 205 colon) was greater than 100 µM. It also gave a GI50 (MDA-N) greater than 100 µM, a TGI (MDA-N) greater than 100 µM and a GI50 (K-562 leukemia) greater than 100 µM. The TGI (K-562 leukemia) was greater than 100 µM, the GI50 (NCI-H522 lung) was greater than 100 µM and the TGI (NCI-H522 lung) was greater than 100 µM. It also gave a GI50 (TK-10 renal) greater than 100 µM, a TGI (TK-10 renal) greater than 100 µM and a GI50 (T-47D breast) greater than 100 µM. The TGI (T-47D breast) was greater than 100 µM, the GI50 (CCRF-CEM leukemia) was greater than 100 µM and the TGI (CCRF-CEM leukemia) was greater than 100 µM. For the same compound, the GI50 (ACHN renal) was greater than 100 µM, the TGI (ACHN renal) was greater than 100 µM and the GI50 (PC-3 prostate) was greater than 100 µM. For the same compound, the TGI (PC-3 prostate) was greater than 100 µM, the GI50 (EKVX NSCLC) was greater than 100 µM and the TGI (EKVX NSCLC) was greater than 100 µM. The GI50 (SK-MEL-5 melanoma) was greater than 100 µM, the TGI (SK-MEL-5 melanoma) was greater than 100 µM and the GI50 (HS 578T breast) was greater than 100 µM. It also gave a TGI (HS 578T breast) greater than 100 µM, a GI50 (UACC-62 melanoma) greater than 100 µM and a TGI (UACC-62 melanoma) greater than 100 µM. The GI50 (UO-31 renal) was greater than 100 µM, the TGI (UO-31 renal) was greater than 100 µM and the GI50 (CAKI-1 renal) was greater than 100 µM. The TGI (CAKI-1 renal) was greater than 100 µM, the GI50 (786-0 renal) was 79.8 µM and the TGI (786-0 renal) was greater than 100 µM. For the same compound, the GI50 (LOX IMVI melanoma) was greater than 100 µM, the TGI (LOX IMVI melanoma) was greater than 100 µM and the GI50 (SF-539 CNS) was greater than 100 µM. It also gave a TGI (SF-539 CNS) greater than 100 µM, a GI50 (SF-268 CNS) greater than 100 µM and a TGI (SF-268 CNS) greater than 100 µM. It also gave a GI50 (M14 melanoma) greater than 100 µM, a TGI (M14 melanoma) greater than 100 µM and a GI50 (SF-295 CNS) greater than 100 µM. For the same compound, the TGI (SF-295 CNS) was greater than 100 µM, the GI50 (DU-145 prostate) was greater than 100 µM and the TGI (DU-145 prostate) was greater than 100 µM. It also gave a GI50 (OVCAR-8 ovarian) of 16.9 µM, a TGI (OVCAR-8 ovarian) of 32 µM and a GI50 (U251 CNS) greater than 100 µM. For the same compound, the TGI (U251 CNS) was greater than 100 µM, the GI50 (HCT-116 colon) was greater than 100 µM and the TGI (HCT-116 colon) was greater than 100 µM. For the same compound, the GI50 (OVCAR-4 ovarian) was greater than 100 µM, the TGI (OVCAR-4 ovarian) was greater than 100 µM and the GI50 (NCI/ADR-RES ovarian) was 62 µM. It also gave a TGI (NCI/ADR-RES ovarian) greater than 100 µM, a GI50 (NCI-H322M lung) greater than 100 µM and a TGI (NCI-H322M lung) greater than 100 µM. The GI50 (MALME-3M melanoma) was greater than 100 µM, the TGI (MALME-3M melanoma) was greater than 100 µM and the GI50 (RXF 393 renal) was greater than 100 µM. It also gave a TGI (RXF 393 renal) greater than 100 µM, a GI50 (SN12C renal) greater than 100 µM and a TGI (SN12C renal) greater than 100 µM. For the same compound, the GI50 (OVCAR-3 ovarian) was greater than 100 µM, the TGI (OVCAR-3 ovarian) was greater than 100 µM and the GI50 (SK-MEL-28 melanoma) was greater than 100 µM. The TGI (SK-MEL-28 melanoma) was greater than 100 µM, the GI50 (RPMI-8226 leukemia) was greater than 100 µM and the TGI (RPMI-8226 leukemia) was greater than 100 µM. The GI50 (SR leukemia) was greater than 100 µM, the TGI (SR leukemia) was greater than 100 µM and the GI50 (SNB-75 CNS) was greater than 100 µM. For the same compound, the TGI (SNB-75 CNS) was greater than 100 µM, the GI50 (MOLT-4 leukemia) was greater than 100 µM and the TGI (MOLT-4 leukemia) was greater than 100 µM. The GI50 (SW-620 colon) was greater than 100 µM, the TGI (SW-620 colon) was greater than 100 µM and the GI50 (SK-MEL-2 melanoma) was greater than 100 µM. For the same compound, the TGI (SK-MEL-2 melanoma) was greater than 100 µM, the GI50 (SK-OV-3 ovarian) was greater than 100 µM and the TGI (SK-OV-3 ovarian) was greater than 100 µM. The GI50 (A498 renal) was greater than 100 µM, the TGI (A498 renal) was greater than 100 µM and the GI50 (A549 NSCLC) was greater than 100 µM. For the same compound, the TGI (A549 NSCLC) was greater than 100 µM, the GI50 (HL-60(TB) leukemia) was greater than 100 µM and the TGI (HL-60(TB) leukemia) was greater than 100 µM. The GI50 (NCI-H23 lung) was greater than 100 µM, the TGI (NCI-H23 lung) was greater than 100 µM and the GI50 (UACC-257 melanoma) was greater than 100 µM. The TGI (UACC-257 melanoma) was greater than 100 µM, the GI50 (BT-549 breast) was greater than 100 µM and the TGI (BT-549 breast) was greater than 100 µM. The GI50 (MDA-MB-231 breast) was greater than 100 µM, the TGI (MDA-MB-231 breast) was greater than 100 µM and the GI50 (HCT-15 colon) was greater than 100 µM. It also gave a TGI (HCT-15 colon) greater than 100 µM, a GI50 (MDA-MB-435) greater than 100 µM and a TGI (MDA-MB-435) greater than 100 µM.

— PubChem BioAssay (NCI)
